{"source": "patent US8518968B2", "about": "“Hydrazone and diacyl hydrazine compounds and methods of use” (The United States of America, as represented by the …, priority 2009, dated 2013)", "test_system": "JEKO-1 cells", "test": "Cytotoxic activity against JEKO-1 cells (MTT cell viability)", "conditions": "incubated 2 days, four parameter logistic fit", "data": [{"smiles": "O=C(N/N=C/C=C/c1ccc([N+](=O)[O-])o1)c1cc([N+](=O)[O-])cc([N+](=O)[O-])c1O", "values": [{"measurement": "IC50", "result": 30, "unit": "µM"}]}]}
